ClpP mod – qHTS Assay for Activators of ClpP. ATP-dependent Clp protease proteolytic subunit (Bacillus subtilis (strain 168)), P80244. purified B. subtilis ClpP, FRET peptide cleavage, 20 min. Potency, µM (titrated, usually from 57.5 µM), inactives show top-dose activity change, negative = active. 340,000 compounds, 1.9% hits. AID 651965, 2013; active = well fitted falling curve with a large enough effect; inconclusive = small, poorly fitted or top-dose-only effect; inactive = no such curve, though single readings can be large or run the other way; also: potency is read from the fitted curve at half-maximal effect; the source files actives as falling curves though it sought activators and does not explain the sign; nearly all actives have a fitted effect of over 65% in size
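Buffer: 100 mM Tris/HCl pH8, 100 mM KCl, 0.05% low protease BSA, 2.5% glycerol, 0.01% Tween-20. ClpP 10 microg/mL final; 20 min RT; delta FRET normalized to ADEP and DMSO controls.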
A549 tox – counter-screen for Nrf2 inhibitors: cytotoxicity in A549 cells; Potency, µM (highest dose often 46 µM), inactives show at the top dose activity change, negative = cytotoxicity, most hits filed as inhibitors; A549 ARE-Fluc cells, CellTiter-Fluor viability, 18-24 h; 390,000 compounds, 0.16% hits; AID 504648; also: potency is read from the fitted curve at half-maximal effect; % is scaled to controls: 0 for no effect and ±100 for the full control effect
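A549 ARE-Fluc cells in 5% FBS OPTI-MEM, 5000 cells/well, rested 2 h then exposed to compounds in concentration-response for 18-24 h at 37 °C. Viability by CellTiter-Fluor fluorescence (Ex 405/Em 525) after 30 min; luciferase luminescence (BugLite, 15 min, RT) read afterwards.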
Nrf2 ARE act – activators of Nrf2 (ARE) signaling | Potency, µM (top dose mostly 46.1 µM), for inactives: at the highest dose activation, hits mostly activators | AREc32 ARE-luciferase reporter (MCF7-derived line), luminescence, 24 h | 410,000 compounds, 0.31% hits; also: potency is read from the fitted curve at half-maximal effect; % of control where 0% means no effect; nearly all actives have a fitted effect of over 65% in size
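Quantitative high-throughput format: AREc32 reporter cells, 1000 per well, received compound by pin transfer and were incubated 24 hr at 37 deg C, 5% CO2, before Steady-Glo luminescence detection.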
miR-21 FLuc – miR-21 reporter, rising signal; HeLa miR-21 FLuc reporter, luciferase, 48 h; Potency, µM (titrated, usually from 38.3 µM), for the others: at the top dose reporter change, positive = more light; 340,000 tested, under 10 active; AID 2288; active = well fitted rising curve with a large enough effect; inconclusive = small, poorly fitted or top-dose-only effect; inactive = no such curve, though single readings can be large or run the other way;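 also: % of control where 0% means no effect; miR-21 action dims this reporter so a rising signal means less miR-21 action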
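Using DMEM plus 10% FBS, HeLa miR-21-FLuc cells are incubated with test compounds (final up to about 40uM) for 48 hours; firefly luciferase signal is then imaged following reagent-mediated lysis.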
Nrf2 block – inhibitors of Nrf2 signaling | A549 ARE-Fluc reporter, luciferase luminescence, 18-24 h | Potency, µM (series often up to 46 µM), for the others: at the top dose activity change, negative = inhibition, hits mostly inhibitors | 360,000 compounds, 2.1% hits | AID 504444; also: potency is read from the fitted curve at half-maximal effect; % is scaled to controls: 0 for no effect and ±100 for the full control effect; nearly all actives have a fitted effect of over 60% in size
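Cells were seeded and rested 2 h, then exposed to compounds for 18-24 h. CellTiter-Fluor was read first as a viability measure. BugLite was added 15 min before the final luminescent read of ARE-luciferase activity in A549 cells.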
p53 reactivation – restores transcriptional activity of mutant p53 | H1299 p53-A138V BP100-luciferase reporter, luminescence, 24 h | 320,000 compounds, 0.063% hits | Potency, µM (titrated, usually from 92.2 µM), without a hit: at the top dose activity change, positive = activation, actives largely listed as activators; also: potency is read from the fitted curve at half-maximal effect; % of control where 0% means no effect; nearly all actives have a fitted effect of over 45% in size
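H1299 (p53-null), stable ts p53-A138V + BP100-Luc; 1000 cells/well, Opti-MEM/10% FBS; cpd 4 pt, 1:5; 24 h, 37 deg C, 5% CO2; detection reagent 10 min RT; luminescence.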
Starred values were filed as active, the others as inactive; u = inconclusive; x = no result given; [ ] = remark or other dose. An excerpt weighted towards active compounds, which were near 3.7% of everything screened. Unless noted, calls follow the shape of the dose curve; as a rule, active = well fitted curve in the direction sought with a large enough effect; inconclusive = small, poorly fitted or top-dose-only effect, or another doubt; inactive = no such curve, though single readings can be large; an effect the other way counts as inactive or inconclusive.

Molecule | ClpP mod | A549 tox | Nrf2 ARE act | miR-21 FLuc | Nrf2 block | p53 reactivation
Cn1nc(C(F)(F)F)c(/C=N/OC(=O)c2ccccc2Cl)c1SCc1ccc(Cl)cc1 | -2% | u | -1% | -4% | 21µM* | -3%
CCCCC[C@H]1CN(CCc2ccccc2)C(=O)[C@@H]1CC(=O)NCc1ccc(OC)cc1 | 1% | u | 5% | 20% | 26µM* | 6%
CCCCC[C@H]1CN(CCCC)C(=O)[C@@H]1CC(=O)NCc1ccc(OC)cc1 | 2% | -6% | -1% | 15% | -12% | 9%
FC(F)(F)c1cccc(N2CCN(c3ccc4nnc(-c5ccccc5)n4n3)CC2)c1 | -1% | u | 0% | -3% | 16µM* | 5%
O=C(/C=C/c1ccccc1Cl)c1ccc(O)cc1 | x | 10% | u | 12% | 1% | u
O=C(/C=C/c1c(F)cccc1Cl)c1ccc(O)cc1 | 0% | -3% | 13µM* | -5% | -15% | u
O=C(/C=C/c1c(F)cccc1Cl)Nc1ncccn1 | 0% | -5% | 7.9µM* | -67% | u | u
O=c1c2cc3c(cc2nc2sc(Nc4cccc([N+](=O)[O-])c4)nn12)OCO3 | -1% | -9% | 0% | 2% | u | x

3 entries already listed, sorted by their value in miR-21 FLuc, lowest first:
canonical_smiles,miR-21 FLuc
O=C(/C=C/c1c(F)cccc1Cl)Nc1ncccn1,-67%
O=C(/C=C/c1c(F)cccc1Cl)c1ccc(O)cc1,-5%
O=c1c2cc3c(cc2nc2sc(Nc4cccc([N+](=O)[O-])c4)nn12)OCO3,2%

An excerpt from above in order of molar mass, lowest first.
Molecule | ClpP mod | A549 tox | Nrf2 ARE act | miR-21 FLuc | Nrf2 block | p53 reactivation
O=C(/C=C/c1ccccc1Cl)c1ccc(O)cc1 | x | 10% | u | 12% | 1% | u
O=C(/C=C/c1c(F)cccc1Cl)Nc1ncccn1 | 0% | -5% | 7.9µM* | -67% | u | u
CCCCC[C@H]1CN(CCCC)C(=O)[C@@H]1CC(=O)NCc1ccc(OC)cc1 | 2% | -6% | -1% | 15% | -12% | 9%

(further entries)
Molecule | ClpP mod | A549 tox | Nrf2 ARE act | miR-21 FLuc | Nrf2 block | p53 reactivation
O=C1/C(=C/c2ccc(S(=O)(=O)O)cc2S(=O)(=O)O)CCc2ccccc21 | 2% | x | 0% | x | x | x
CSc1ncc(C(=O)Nc2cccc(C)c2C)c(-c2ccccc2)n1 | -7% | 9% | 0% | -4% | -7% | x
CCCN(C(=O)c1ccco1)c1nnc(-c2cccc(C)c2)s1 | -5% | 24% | 10µM* | -56% | u | -1%
COc1ccc(NS(=O)(=O)c2cccc(C(=O)OCC(=O)N3CCN(c4ccc(OC)cc4)CC3)c2)cc1 | 1% | -19% | 0% | x | 21µM* | -2%
COc1ccc2oc(C(=O)OC(C)C(=O)N3CCC(C)CC3)c(C)c2c1 (stereo not given) | 25µM* | -21% | 2% | x | u | -3%
COc1ccc2oc(C(=O)OC(C)C(=O)N(C)c3ccccc3)c(C)c2c1 (stereo not given) | 22µM* | -11% | 3% | x | u | 4%
COc1ccc(N2CCN(C(=O)c3ccc(NS(=O)(=O)c4cccc(F)c4)cc3)CC2)cc1 | 0% | -5% | 1% | -21% | u | 6%
CCNC(=O)NC(=O)C(C)OC(=O)c1oc2ccc(OC)cc2c1C (stereo not given) | 32µM* | -3% | 0% | -2% | 9% | 0%

(further entries)
Molecule | ClpP mod | A549 tox | Nrf2 ARE act | miR-21 FLuc | Nrf2 block | p53 reactivation
COc1ccccc1C1C(C(=O)Nc2ccccc2)=C(C)Nc2nc(-c3ccccc3)nn21 (stereo not given) | -4% | 2% | 1% | 12% | 2% | x
C=C1[C@@H](O)CN(Cc2ccc(OC)cc2)S1(=O)=O | 1% | x | x | x | x | x
Cc1c(C(=O)OCC(=O)N(C)C2CCS(=O)(=O)C2)oc2ccc(Br)cc12 (stereo not given) | -5% | -1% | 0% | -1% | -13% | -1%
Cc1ccsc1CN(C(=O)c1oc2ccc(F)cc2c1C)C1CCS(=O)(=O)C1 (stereo not given) | -9% | -7% | 5% | 0% | u | x
Cc1ccc2oc(C(=O)N(Cc3sccc3C)C3CCS(=O)(=O)C3)c(C)c2c1 (stereo not given) | -8% | -15% | 6% | 11% | 23µM* | x
COc1ccc2oc(C(=O)OCC(=O)N3CCCCC3C)c(C)c2c1 (stereo not given) | 8.9µM* | 7% | 0% | x | 9% | u
COc1ccc2oc(C(=O)OCC(=O)N3C(C)CCCC3C)c(C)c2c1 (stereo not given) | u | 0% | 0% | -18% | -1% | 17%
COc1ccc(N2CCN(C(=O)COC(=O)c3oc4ccc(OC)cc4c3C)CC2)cc1 | 25µM* | -3% | -1% | x | 8% | 10%

The list continues.
Molecule | ClpP mod | A549 tox | Nrf2 ARE act | miR-21 FLuc | Nrf2 block | p53 reactivation
COc1ccc2oc(C(=O)OCC(=O)N(C)C3CCS(=O)(=O)C3)c(C)c2c1 (stereo not given) | 10µM* | 1% | 0% | x | 2% | 0%
O=C(NNc1cc(Cl)cc(Cl)c1)c1sccc1Cl | 1% | 1% | x | x | 8% | x
COc1ccc2c(c1)c1c(c(=O)n(-c3ccccc3)c(=O)n1CC(=O)Nc1ccc(C)c(C)c1)n2C | u | 1% | -1% | 0% | 18% | x
COc1ccc2oc(C(=O)OCC(=O)N3CC(C)CC(C)C3)c(C)c2c1 (stereo not given) | 14µM* | 2% | -1% | x | 1% | -1%
CC(=O)c1ccc(NC(=O)CN2C(=O)CCc3ccccc32)cc1 | 1% | 0% | -1% | -42% | u | x
CC(C)[C@H](NC(=O)c1ccccc1Cl)C(=O)OCc1cc([N+](=O)[O-])cc2c1OCOC2 | 22µM* | 2% | 4% | -10% | 23% | 10%
Cc1cc(O)c(CN2CCN(c3ccccc3)CC2)c2oc(=O)cc(C)c12 | 4% | 10% | 4% | -28% | 24% | x
O=C(Nc1nc(-c2ccccc2)cs1)C1CCCN(S(=O)(=O)c2ccccc2)C1 (stereo not given) | -1% | 0%[1.84 µM] | 0% | u | 21µM* | -2%

Additional compounds.
Molecule | ClpP mod | A549 tox | Nrf2 ARE act | miR-21 FLuc | Nrf2 block | p53 reactivation
O=C(Nc1nc(-c2ccc(S(=O)(=O)N3CCCCCC3)cc2)cs1)c1cccs1 | u | -11% | 3% | 19% | 6.5µM* | 10%
CC(C)Oc1ccc(S(=O)(=O)N2CCOCC2)cc1NC(=O)CC1CC2CCC1C2 (stereo not given) | 0% | x | -1% | x | x | x
C[n+]1ccc(C(c2c[nH]c3ccccc23)c2cc[n+](C)c3ccccc23)c2ccccc21 | -16% | x | x | x | x | x
COc1ccc(Nc2ncnc3onc(-c4ccc(Cl)cc4)c23)cc1Cl | -22% | -11% | 0% | u | -7% | x
O=C(Nc1cc(Br)ccc1O)c1cc(-c2ccco2)on1 | 0% | -5% | 4.5µM* | -30% | u | 21%
O=C(Nc1cccc(Cl)c1)c1cc(-c2ccco2)on1 | x | -1% | 10% | -8% | 5% | 11%
O=C(Nc1cc(Cl)ccc1O)c1cc(-c2ccco2)on1 | x | -4% | 6.3µM* | -65% | -12% | u
O=C(Nc1cccnc1Cl)c1cc(-c2ccco2)on1 | -3% | 1% | 10µM* | -50% | u | 23%
O=C(NC1CCCCC1)c1ccc(CSc2nc3ccncc3n2Cc2ccccc2)cc1 | -3% | -1% | 7% | 1% | u | x
COc1ccc(Cn2c(SCc3ccc(C(=O)NC4CCCC4)cc3)nc3ccncc32)cc1 | -3% | -14% | 0% | 15% | 16µM* | x
